We go through one molecule from article PMC11289455 (Scientific Reports, 2024).

Structures are written as SMILES.

This series is described as follows: Rat pharmacokinetic and tissue distribution study, oral dosing. To be noted: male Sprague-Dawley rats, 10 mg/kg oral, n=4/timepoint, LC-MS/MS. The protocol:
Table S2. […] Plasma, small intestine, colon, and colon contents were sampled at terminal time points. Tissues and content were homogenized in buffer (1:1 PBS:ethanol with EDTA-free protease inhibitor tablets [Roche]). All samples were analyzed using LC-MS/MS.

As for `CC(=O)NCCCC[C@@H]1NC(=O)[C@H](Cc2c[nH]c3c(C)cccc23)NC(=O)[C@H]([C@@H](C)O)NC(=O)[C@H](CC(N)=O)NC(=O)[C@@H](NC(C)=O)C(C)(C)SSC(C)(C)[C@@H](C(=O)N[C@@H](Cc2ccc(OCCN)cc2)C(=O)N[C@@H](Cc2ccc3ccccc3c2)C(=O)NC2(C(=O)N[C@@H](CCC(=O)O)C(=O)N[C@@H](CC(N)=O)C(=O)N[C@@H](Cc3cccnc3)C(=O)N(C)CC(N)=O)CCOCC2)NC1=O` [JNJ-77242113, S^3,1,S^3,6-cyclo[N-acetyl-3-sulfanyl-L-valyl-L-asparaginyl-L-threonyl-7-methyl-L-tryptophyl-N^6-acetyl-L-lysyl-3-sulfanyl-L-valyl-O-(2-aminoethyl)-L-tyrosyl-3-(naphthalen-2-yl)-L-alanyl-4-aminooxan-4-carbonyl-L-α-glutamyl-L-asparaginyl-3-(pyridin-3-yl)-L-alanyl-N^2-methylglycinamide]], the “AUClast, SI mucosa” value is 27,100 ng·hr/g; the “AUClast, SI mucus” value is given as 105,000 ng·hr/g; the “Cmax, SI mucosa” value was 12,800 ng/g; the “Cmax, SI mucus” value is on record as 58,500 ng/g. Also, the “Tmax, SI mucosa” value was found to be 1 h and the “Tmax, SI mucus” value stood at 1 h. Also, where the note is “tissue homogenate”, the “AUClast, SI (small intestines)” value was 4,950 ng·hr/g; the “Cmax, SI (small intestines)” value is recorded as 2,090 ng/g; the “Tmax, SI (small intestines)” value worked out at 1 h.
